The target of assay [1] is T1, tau4R, the microtubule-binding region with R1-R4, labelled with Alexa Fluor 488 (human (by the printed UniProt entry)). Put plainly: fluorescence correlation spectroscopy (FCS); ~20 nM fluorescent protein (Alexa 488-labelled tau construct or eGFP) with unlabelled αS seeds at 20, 60 or 100 nM (monomer units); 20°C; 50 mM Na2HPO4, 50 mM NaCl pH 7.0; two-component diffusion fit, medians of type III curves.

Assay [2] concerns the target T2, tau_(1N4R), full-length 1N4R tau, labelled with Alexa Fluor 488 (human (by the printed UniProt entry)). Described as above.
Assay [3] deals with T1, tau4R, the microtubule-binding region with R1-R4, labelled with Alexa Fluor 488 (human). Kind of assay: fluorescence correlation spectroscopy (FCS); ~20 nM fluorescent protein (Alexa 488-labelled tau construct or eGFP) with unlabelled monomer αS up to 150 μM; 20°C; 50 mM Na2HPO4, 50 mM NaCl pH 7.0; single-species diffusion fit, τD normalised to the protein alone.
Assay [4] deals with T2, tau_(1N4R), full-length 1N4R tau, labelled with Alexa Fluor 488 (human). Described as above.

Data on two substances can be found in article PMC11386428.

Regarding “full-length αS seeds (sonicated fibrils of N-terminally acetylated α-synuclein) (from UniProt P37840 1-140) (complex)”, in assay [1], the median fB (fraction of tau with τD2) at 20 nM αS seeds is 0.12, the median fB (fraction of tau with τD2) at 60 nM αS seeds is 0.17 and the median fB (fraction of tau with τD2) at 100 nM αS seeds was determined as 0.17. Further, in assay [2], the median fB (fraction of tau with τD2) at 20 nM αS seeds stood at 0.067, the median fB (fraction of tau with τD2) at 60 nM αS seeds is 0.26, the median fB (fraction of tau with τD2) at 100 nM αS seeds turned out to be 0.161 and the median type III τ (D2app) at 100 nM αS seeds turned out to be 2.5 ms.

As to “N-terminally acetylated full-length α-synuclein, monomer (from UniProt P37840 1-140) (natural protein)”, the percent increase in τD at 150 μM αS in assay [3] was 10%; in assay [4], 7%.
